# Source: US10640802B2 (priority 2012, dated 2020)
# Legend:
# wild type AfArsR = assay: Fluorescence anisotropy: dissociation of wild type AfArsR from DNA by arsenicals; assay type: binding, Acidithiobacillus ferrooxidans; conditions: read-out: half-maximal concentration for decrease of anisotropy; wild type AfArsR-DNA complex, FIG. 11A/B
# AfArsR C102S mutant = assay: Fluorescence anisotropy: dissociation of C102S AfArsR from DNA by arsenicals; assay type: binding, Acidithiobacillus ferrooxidans; conditions: slightly higher than the wild type
# [1] = system: AfarsR-gfp biosensor (E. coli strain AW3110 bearing pBADarsR and pACYC184-parsO-gfp); assay: In vivo biosensor assay, gfp expression, wild type AfarsR; assay type: cell-based; conditions: for biosensor response (gfp derepression): 0.05% arabinose, wild type repressor
# [2] = system: C102S mutant biosensor (E. coli strain AW3110); assay: In vivo biosensor assay, gfp expression, C102S AfarsR; assay type: cell-based
# [3] = system: C102S biosensor co-cultured with Burkholderia sp. MR1; assay: Biosensor co-cultured with Burkholderia sp. MR1 (in situ reduction); assay type: cell-based, E. coli / Burkholderia sp. MR1; conditions: 2 μM, M9 medium, 8 hours, 0.05% arabinose
# [4] = system: arsenic hypersensitive E. coli strain AW3110; conditions: LB plate, overnight, FIG. 16C
substance,measurement,setting,value
phenylarsenite,pEC50,wild type AfArsR,6.52
same,response of C102S AfArsR (concentration range),AfArsR C102S mutant,sub-micromolar range
same,biosensor response (gfp derepression),[1],much greater
same,biosensor response (gfp derepression),[1]; listed as PhAs(III),proportional to the concentration of the inducer
same,biosensor response,[1]; 0.5% arabinose,lost due to the toxicity
same,pEC50,"[1]; read-out: apparent half maximal concentration required for induction, 0.2% arabinose, FIG. 6B",6.60
same,induction of gfp expression,"[1]; subtoxic concentrations, 0.2% arabinose",induced gfp expression
same,biosensor response (gfp derepression),"[2]; 0.05% arabinose, C102S mutant repressor",proportional to the concentration of the inducer
same,fluorescence of Cys102-lacking biosensor,[2]; FIG. 10,high levels of fluorescence
same,pEC50,"[2]; read-out: apparent half maximal concentration for induction, mutant biosensor, FIG. 13C",6.60
same,response of biosensor co-cultured with Burkholderia,[3],did respond
same,"toxicity, disk test",[4],toxic

# pEC50: −log10 of the molar value.
